Consider one molecule from ChEMBL document CHEMBL3351478, “New flavonol methyl ether from the leaves of Vitex peduncularis exhibits potential inhibitory activity against Leishmania donovani through activation of iNOS expression” (Eur J Med Chem, 2014).

The test system of experiment [1] is Leishmania donovani. As to the kind of experiment: Antileishmanial activity against Leishmania donovani AG83 promastigotes assessed as parasite growth inhibition incubated for 92 hrs by MTT assay. It is filed as functional, organism-based. (In general: Formazan colour is commonly taken as a measure of viable cells.)
In experiment [2] the test system is Leishmania donovani. The conditions noted are these: THP-1, 10 to 210 uM.

Each structure is given as a SMILES string.

`COc1cc(O)c2c(=O)c(OC)c(-c3cc(O)c(O)c(OC)c3)oc2c1`: the inhibition result with Leishmania donovani [1] and with Leishmania donovani [2] was “Dose-dependent effect” each time.
